## Antibody variant affinities, Ab-95 light chain, assay 2

Target: peptide PDVDLGDISGINAS, taken from heptad repeat 2 (HR2) of SARS-CoV-2 spike.

Ab-95 is the parent antibody, in scFv form: VH, then the linker GGGGSGGGGSGGGGS, then VL. The heavy chain is unchanged in all variants.
VH: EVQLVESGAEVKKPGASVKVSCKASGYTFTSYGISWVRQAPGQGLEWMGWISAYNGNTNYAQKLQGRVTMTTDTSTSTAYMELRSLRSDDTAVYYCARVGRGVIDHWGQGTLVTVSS
VL: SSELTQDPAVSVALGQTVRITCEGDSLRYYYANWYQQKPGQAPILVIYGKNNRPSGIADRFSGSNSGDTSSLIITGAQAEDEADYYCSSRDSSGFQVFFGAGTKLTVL

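The library (AAYL52) carries one to three amino acid substitutions per variant, with no insertions or deletions. Affinity was read by AlphaSeq, a pooled yeast mating assay with surface-displayed partners. After mating in shaken culture at 30 °C for 16 h, diploids were selected and their barcode pairs sequenced. Each replicate has its own calibration line, from reference interactions of the BCL2 family. Mating was done three times.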

Positions count from residue 1 of the parent VL; N33M puts M in place of N. Scale: log10 of Kd in nM, estimated from mating counts; low values are strong binders. A pair that was not seen in that replicate is written "nd"; this usually means weak binding, but a binder can also be missed. As a blank, each scFv also met three strains without target: over library AAYL52, 28% of these pairings were detected, typically at 3.91 and seldom below 2.90. The control count says in how many pairings with the empty strains this scFv gave a signal, with their mean in brackets. In this assay the parent's reference entry averaged 2.31; its copy inside this library read 2.25.

| # | changes | log10 Kd (nM) by replicate | signal with controls |
|---|---|---|---|
| 1 | N33M/G49T/R90V | nd / nd / nd | 2/9 (4.00) |
| 2 | E23G/D91A/F95S | 2.60 / 2.74 / 2.38 | 0/9 |
| 3 | G24W/A32F/P54N | nd / nd / nd | 1/9 (3.80) |
| 4 | N51D/N52S | 1.75 / 1.92 / 1.63 | 5/9 (4.24) |
| 5 | N52F/S88D/F95N | nd / nd / nd | 2/9 (3.49) |
| 6 | Y31G/F95P | 2.53 / 2.00 / 1.46 | 5/9 (4.01) |
| 7 | E23H/A32Q/N33S | nd / nd / nd | 1/9 (4.23) |
| 8 | N33E/R90F/S92W | nd / nd / nd | 4/9 (4.42) |
| 9 | Y29S/Y30E/V97H | 1.93 / 1.49 / 1.27 | 0/9 |
| 10 | D25M/N51D/R90A | 3.76 / nd / nd | 5/9 (4.44) |
| 11 | F98N | 2.64 / 2.65 / 1.65 | 0/9 |
| 12 | K50E/S88F/Q96M | 2.62 / 2.46 / 2.11 | 4/9 (3.72) |
| 13 | E23G/R28A/R53S | 2.82 / 3.58 / 4.04 | 4/9 (4.04) |
| 14 | G49K/R90F/Q96T | 4.48 / 4.45 / nd | 2/9 (3.96) |
| 15 | A32Q/N33Q/G49I | 4.16 / nd / nd | 3/9 (4.60) |
| 16 | G24A/D25C/D91K | nd / nd / nd | 2/9 (3.63) |
| 17 | D25P/G49C/R53K | nd / nd / nd | 2/9 (4.55) |
| 18 | Y29P/Q96P | 3.62 / nd / 3.91 | 0/9 |
| 19 | E23I/G94S | 3.13 / 3.05 / 2.91 | 3/9 (3.36) |
| 20 | E23R/G49T/F98V | 3.47 / 3.76 / nd | 3/9 (3.94) |
| 21 | G24A/Y29N/G94Y | 3.02 / 2.66 / 3.35 | 4/9 (3.78) |
| 22 | G49S/F95Y/V97F | nd / 4.66 / 4.10 | 2/9 (4.22) |
| 23 | G24D/D25K/N33Y | 3.44 / nd / nd | 3/9 (4.22) |
| 24 | G24K/Y30W/S93C | nd / nd / nd | 0/9 |
| 25 | S89P/S92N/Q96M | 2.68 / 2.86 / 3.51 | 1/9 (2.69) |
| 26 | Y30W/S89K/V97S | nd / nd / nd | 0/9 |
| 27 | S26I/N52D/G94C | nd / nd / nd | 0/9 |
| 28 | G24P/P54L/F95I | 3.74 / 4.53 / nd | 3/9 (4.62) |
| 29 | A32L/N51W/F98R | 4.05 / nd / nd | 1/9 (5.06) |
| 30 | R28W/N33G/D91L | 5.34 / nd / nd | 4/9 (4.12) |
| 31 | Y29S/N33G/N52D | nd / nd / nd | 0/9 |
| 32 | A32D/N52C/D91L | 5.50 / 3.35 / nd | 6/9 (4.27) |
| 33 | Y29L/K50V/N52F | 3.12 / 3.25 / 3.42 | 5/9 (4.59) |
| 34 | D25E/K50Y/V97F | 2.92 / nd / nd | 2/9 (4.07) |
| 35 | L27H/P54S/D91Q | nd / nd / nd | 0/9 |
| 36 | G24F/S26C/S89R | 4.31 / nd / nd | 4/9 (3.63) |
| 37 | D25G/S92K/V97S | nd / nd / nd | 2/9 (3.68) |
| 38 | L27G/R28D/S89M | 2.58 / 2.34 / 2.53 | 2/9 (4.33) |
| 39 | Y30N/Y31Q/N52F | 0.66 / 0.66 / -0.08 | 5/9 (3.97) |
| 40 | Y29T/G49L/D91V | 5.14 / nd / nd | 1/9 (4.42) |
| 41 | P54M/G94T/V97K | 3.36 / nd / nd | 4/9 (4.31) |
| 42 | S26A/R53W/D91K | 4.81 / 5.56 / 4.35 | 4/9 (3.97) |
| 43 | G24H/L27R/K50D | 1.60 / 1.59 / 1.21 | 2/9 (3.65) |
| 44 | A32S/G49A/S93A | nd / 4.99 / 3.17 | 5/9 (4.43) |
| 45 | S26F/Y29V/G49M | nd / nd / nd | 1/9 (3.16) |
| 46 | N33H/S88R/V97C | 3.57 / nd / 3.86 | 5/9 (4.36) |
| 47 | Y30I/A32N/N51P | nd / nd / nd | 3/9 (4.47) |

Excerpt, the final 5 entries:

| changes | log10 Kd (nM) by replicate | signal with controls |
|---|---|---|
| G24H/L27R/K50D | 1.60 / 1.59 / 1.21 | 2/9 (3.65) |
| A32S/G49A/S93A | nd / 4.99 / 3.17 | 5/9 (4.43) |
| S26F/Y29V/G49M | nd / nd / nd | 1/9 (3.16) |
| N33H/S88R/V97C | 3.57 / nd / 3.86 | 5/9 (4.36) |
| Y30I/A32N/N51P | nd / nd / nd | 3/9 (4.47) |

Reference: Engelhart et al. 2022, doi:10.1038/s41597-022-01779-4. File: FLAb, binding data.